Values of other authors as cited in publication PMC5830979, “Preclinical In Vitro and In Vivo Evaluation of [^18F]FE@SUPPY for Cancer PET Imaging: Limitations of a Xenograft Model for Colorectal Cancer” (Contrast Media & Molecular Imaging, 2018).

Chains of the proteins cited; added tags and fusions are not shown.
UniProt P0DMS8, whole entry: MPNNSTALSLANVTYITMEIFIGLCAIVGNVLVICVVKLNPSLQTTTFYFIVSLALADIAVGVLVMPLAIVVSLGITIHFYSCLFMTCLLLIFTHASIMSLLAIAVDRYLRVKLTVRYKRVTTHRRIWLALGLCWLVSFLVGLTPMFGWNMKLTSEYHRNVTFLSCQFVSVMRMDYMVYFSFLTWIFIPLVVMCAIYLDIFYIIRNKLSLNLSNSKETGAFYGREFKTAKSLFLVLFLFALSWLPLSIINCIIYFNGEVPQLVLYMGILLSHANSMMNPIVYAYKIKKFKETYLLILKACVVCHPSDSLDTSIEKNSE

Molecular target: hA3AR (Homo sapiens, UniProt P0DMS8)
Set-up: purchased PerkinElmer, Inc. Waltham, USA; method as in PerkinElmer (manufacturer)
Settings: radioligand of the assay; ref PerkinElmer (manufacturer); cited from earlier work

## CNC(=O)[C@H]1O[C@@H](n2cnc3c(NCc4ccc(N)c(I)c4)ncnc32)[C@H](O)[C@@H]1O [[^125I]AB-MECA]
  Kd: 0.78 nM
